Test system: beta-arrestin1
Experiment: Beta-arrestin 1 levels in rat brain areas after chronic antidepressant treatment (immunoblot)
Format: in vivo
Conditions: three weeks of treatment
Experimental: On the 22nd day, rats were decapitated, blood collected and brain regions immediately dissected. Tissue homogenization was carried out in a glass-teflon homogenizer with ice-cold buffer containing 20 mM Tris.Cl pH 7.4, 2 mM EDTA, 1 mM DTT and antiprotease cocktail (Sigma). After initial centrifugation at 800 g for 5 min, the supernatant was collected and further centrifuged at 48,000 g for 30 min using a Beckman Ti80 rotor. The resulting supernatant and pellet were separated: the supernatant fraction was collected and centrifuged at 120,000 g for 45 min and the supernatant obtained was used for all measurements; the pellet was resuspended in the homogenization buffer and the pellet fraction obtained was used for all measurements.
On the day of assay, cytosolic and/or membrane fraction were thawed. 10 μg total protein aliquots were taken for protein separation by SDS-(10%) polyacrylamide gel electrophoresis. The resulting proteins were transferred to nitrocellulose paper by use of electroblotting apparatus. Blots were blocked with 5% BSA for 1 hr in TBS containing 0.1% Tween-20 (TTBS) and incubated overnight with a monoclonal antibody to beta-arrestin1 (Transduction Labs, diluted 1:250). The immune bands were detected by subsequent incubation with anti-mouse IgG labeled with horseradishperoxidase using the Enhanced Chemiluminescence Western Blot Detection System (Amersham) followed by exposure to Kodak X-Omat film. […] Peak heights of immunoreactive bands presented as arbitrary absorbance units, were determined with a computer-assisted imaging system for semi-quantitative measurements. 10 μg rat cortical membranes run in each blot as a standard reference.
Beta-arrestin1 levels were measured in three rat brain areas: cortex, hippocampus and striatum.

CNCCCN1c2ccccc2CCc2ccccc21 [desipramine]
Cytosolic beta-arrestin-1 in rat cortex (rat cortex, cytosolic fraction, 10 mg/kg twice daily intragastrically, compared with control group): 163.4% | Membrane beta-arrestin 1 in rat cortex (rat cortex, membrane fraction, 10 mg/kg twice daily intragastrically, compared with control group): 146.2% | Cytosolic beta-arrestin-1 in rat hippocampus (rat hippocampus, cytosolic fraction, 10 mg/kg twice daily intragastrically, compared with control group): 151.6% | Membrane beta-arrestin-1 in rat hippocampus (rat hippocampus, membrane fraction, 10 mg/kg twice daily intragastrically, compared with control group): 162.9% | Beta-arrestin 1 levels in striatum (rat striatum): no alterations

From US7736621B2, “Methods for gauging the effect of a depression treatment by determining the levels of beta-arrestin 1 and G-protein coupled receptor kinase 2” (Hypatia Ltd., priority 2004, dated 2010)
